Source: patent publication US8986722B2, “Pest control composition” (priority 2010, dated 2015)

Assay: HLB of polyglycerol fatty acid ester, Griffin formula 20(1−S/A)
Type: physicochemical
Details: from saponification and acid values
Excerpt: The HLB (Hydrophile-Lipophile Balance) is an index indicating degrees of hydrophilic properties and lipophilic properties of a surfactant and being shown by a numerical value of 0 to 20. […] Therefore, a surfactant having a low HLB is apt to adapt to a hydrophobic system and a surfactant having a high HLB is apt to adapt to a hydrophilic system.
As the HLB value of said polyglycerol fatty acid ester, a numerical value derived from the following calculation method which is an empirical formula by Griffin is applied. In this regard, as the below-described saponification and acid values, values analyzed in accordance with general test procedures of standards for food additives and standards of quasi-drug ingredients are used. HLB value=20(1−S/A)
S: Saponification value for an ester of a surfactant.
A: Acid value of a fatty acid constituting a surfactant.

With decaglycerol erucic acid ester as the substance, how does the HLB read?
Its HLB is “about 3.5”.
